From patent US20100168176A1, “NOVEL COMPOUNDS, PHARMACEUTICAL COMPOSITIONS CONTAINING SAME, AND METHODS OF USE FOR SAME” (FASGEN LLC, priority 2006, published 2010)

Legend:
[1] = test system: MCF-7 human breast cancer cells; experiment: [14C]acetate incorporation into total lipids
Description: Measurement of [^14 C]acetate Incorporation into Total Lipids and Determination of IC50 of Compounds
This assay measures the incorporation of [^14C]acetate into total lipids and is a measure of fatty acid synthesis pathway activity in vitro. It is utilized to measure inhibition of fatty acid synthesis in vitro.
MCF-7 human breast cancer cells cultured as above, are plated at 5×10^4 cells per well in 24-well plates. Following overnight incubation, the compounds to be tested, solubilized in DMSO, are added at 5, 10, and 20 μg/ml in triplicate, with lower concentrations tested if necessary. DMSO is added to triplicate wells for a vehicle control. C75 is run at 5 and 10 μg/ml in triplicate as positive controls. After 4 hours of incubation, 0.25 μCi of [^14C]acetate (10 μl volume) is added to each well.
After 2 hours of additional incubation, medium is aspirated from the wells and 800 μl of chloroform:methanol (2:1) and 700 μl of 4 mM MgCl2 is added to each well. Contents of each well are transferred to 1.5 Eppendorf tubes, and spun at full-speed for 2 minutes in a high-speed Eppendorf Microcentrifuge 5415D. After removal of the aqueous (upper) layer, an additional 700 μl of chloroform:methanol (2:1) and 500 μl of 4 mM MgCl2 are added to each tube and then centrifuged for 1 minutes as above. […] Once dried, 3 ml of scintillant (APB #NBC5104) is added and vials are counted for ^14C. […]

[2] = test system: MCF-7 human breast cancer cells; experiment: XTT cytotoxicity assay, MCF-7 (M); details: (M) or no code; MCF-7, 72 hours
Description: (§1) The XTT assay is a non-radioactive alternative for the [^51Cr] release cytotoxicity assay. XTT is a tetrazolium salt that is reduced to a formazan dye only by metabolically active, viable cells. The reduction of XTT is measured spectrophotometrically as OD490-OD650.
(§2) To measure the cytotoxicity of specific compounds against cancer cells, 9×10^3 MCF-7 human breast cancer cells, obtained from the American Type Culture Collection are plated per well in 96 well plates in DMEM medium with 10% fetal bovine serum, insulin, penicillin, and streptomycin. Following overnight culture at 37° C. and 5% CO2, the compounds to be tested, dissolved in DMSO, are added to the wells in 1 μl volume at the following concentrations: 80, 40, 20, 10, 5, 2.5, 1.25, and 0.625 μg/ml in triplicate. Additional concentrations are tested if required. 1 μl of DMSO is added to triplicate wells are the vehicle control. C75 is run at 40, 20, 10, […], 10, and 5 in triplicate as positive controls.
(§3) After 72 hours of incubation, cells are incubated for 4 hours with the XTT reagent as per manufacturer's instructions (Cell Proliferation Kit II (XTT) Roche). Plates are read at OD490 and OD650 on a Molecular Devices SpectraMax Plus Spectrophotometer. Three wells containing the XTT reagent without cells serve as the plate blank. XTT data are reported as OD490-OD650. […]

[3] = test system: OV; experiment: XTT cytotoxicity assay, OV
[4] = test system: H; experiment: XTT cytotoxicity assay, H
Description: as §1, §2, §3

[5] = test system: RKO; experiment: XTT cytotoxicity assay, RKO; type: cell-based
Description: as §1, §2, §3

[6] = test system: 3T3; experiment: XTT cytotoxicity assay, 3T3; type: cell-based
Description: as §1, §2, §3

[7] = test system: SKBR; experiment: XTT cytotoxicity assay, SKBR; type: cell-based
Description: as §1, §2, §3

[8] = test system: 231; experiment: XTT cytotoxicity assay, 231; type: cell-based
Description: as §1, §2, §3

[9] = test system: MRC; experiment: XTT cytotoxicity assay, MRC; type: cell-based
Description: as §1, §2, §3

[10] = test system: MCF-7 human breast cancer cells; experiment: Crystal violet cell growth assay, MCF-7; details: no cell code printed; MCF-7 per method, 72 hours
Description: Crystal Violet Cell Growth Assay
The crystal violet assay measure cell growth but not cytotoxicity. This assay employs crystal violet staining of fixed cells in 96-well plates with subsequent solubilization and measurement of OD490 on a spectrophotometer. The OD490 corresponds to cell growth per unit time measured. Cells are treated with the compounds of interest or vehicle controls and IC50 for each compound is computed.
To measure the cytotoxicity of specific compounds against cancer cells, 5×10^4 MCF-7 human breast cancer cells, obtained from the American Type Culture Collection are plated per well in 24 well plates in DMEM medium with 10% fetal bovine serum, penicillin, and streptomycin. Following overnight culture at 37° C. and 5% CO2, the compounds to be tested, dissolved in DMSO, are added to the wells in 1 μl volume at the following concentrations: 50, 40, 30, 20, and 10 μg/ml in triplicate. […]
After 72 hours of incubation, cells are stained with 0.5 ml of Crystal Violet stain (0.5% in 25% methanol) in each well. […] Following transfer of 100 μl from each well to a 96-well plate, plates are read at OD490 on a Molecular Devices SpectraMax Plus Spectrophotometer Average OD490 values are computed using SOFTmax Pro Software (Molecular Devices) and IC50 values are determined by linear regression analysis using Prism version 3.02 (Graph Pad Software, San Diego).

[11] = Weight loss screen in Balb/C mice; details: 60 mg/kg intraperitoneally, day 2
Description: Weight Loss Screen for Novel FAS Inhibitors
Balb/C mice (Jackson Labs) are utilized for the initial weight loss screening. Animals are housed in temperature and 12 hour day/night cycle rooms and fed mouse chow and water ad lib. Three mice are utilized for each compound tested with vehicle controls in triplicate per experiment. For the experiments, mice are housed separately for each compound tested three mice to a cage. Compounds are diluted in DMSO at 10 mg/ml and mice are injected intraperitoneally with 60 mg/kg in approximately 100 μl of DMSO or with vehicle alone. Mice are observed and weighed daily; average weights and standard errors are computed with Excel (Microsoft). The experiment continues until treated animals reach their pretreatment weights.

[12] = test system: FAO; experiment: FAO SC 150 / FAO Max

Structure (SMILES): CCCCCCCCC1(C)SC(=O)C=C1OCC(=O)NNc1ccc(Cl)cc1 (centres unmarked)
- 14C (IC50) [1]: 12.7 ± 3.7 µg/mL
- XTT (IC50) [2]: 6.0 ± 0.8 µg/mL
- XTT (IC50) [3]: 8.8 µg/mL (OV)
- XTT (IC50) [4]: 4.7 µg/mL (H)
- XTT (IC50) [5]: 4.5 µg/mL (RKO)
- XTT (IC50) [6]: 14.9 ug/ml (3T3)
- XTT (IC50) [7]: 7.3 µg/mL
- XTT (IC50) [8]: 9.4 ug/ml (231)
- XTT (IC50) [9]: 4.3 µg/mL (MRC)
- Cr. Violet (IC50) [10]: <5 µg/mL
- Weight Loss [11]: 60 mg/kg: 1.4% (day 2)
- FAO Max: concentration at which the maximum was seen [12]: @ 0.195 ug/ml
- FAO SC 150 [12]: Neg
- FAO Max ([12]; at the concentration given under E18): 107%
